Assay results: patent publication EP4205733B1, “COMPOSITION FOR THE TREATMENT OF OSTEOPENIA AND OSTEOPOROSIS” (MIVELL S.R.L.S., priority 2021, dated 2023)

Details: at high concentrations

orthosilicic acid
stability of the molecule: very unstable
